How the values were obtained:
[1] = target: T1, hPAD4 enzyme (Homo sapiens, UniProt Q9UM07); assay: RFMS Assay 1 (rapid-fire mass spectrum PAD4 inhibition assay, BAEE substrate); details: read-out: human PAD4 (hPAD4) IC50, RFMS Assay 1; 5 nM hPAD4 enzyme, 250 μM BAEE, 30 mins compound and enzyme preincubation at 37° C., 90 min enzyme/substrate reaction
Description: Compounds were solubilized in 100% DMSO to achieve a 10 mM compound concentration. Compound stock solutions were stored at RT. A series of dilutions were prepared in DMSO and mixed 8 times with 20 μL mixing volume. Final top concentration of compound in the assay is 50 μM. Final assay conditions were as follows: • Reaction volume: 26 μl • Assay buffer: 25 mM hepes, pH 7.5, 5 mM NaCl, 1 mM DTT, 0.2 mg/ml BSA, 0.01% CHAPS, 50 μM Calcium, and 5 μM TPEN • Final concentrations: 5 nM hPAD4 enzyme, 250 μM BAEE, and 0.5% DMSO • Total incubation time: 30 mins compound and enzyme preincubation at 37° C., 90 min enzyme/substrate reaction, 30 min reaction with phenyl glyoxal at 37° C. • Stop solution: 40 μl 5% TCA in ACN
0.13 μL of compound solution was added to 13 μL of 10 nM PAD4 in assay buffer. After 30 min 13 μl of 500 μM of BAEE was added in 25 mM hepes, pH 7.5, 5 mM NaCl, 1 mM DTT, 0.2 mg/ml BSA, 0.01% CHAPS, 50 µM Calcium, […] was added and the reaction incubated for 90 min at 37° C. The enzymatic reaction was quenched by addition of 15 μl of 6.1N TCA, 100% Final Concentration is 20%, 35 μl of 8.5 mM phenyl glyoxal (final concentration 4 mM) is then added and the reaction is incubated for 30 min at 37° C. […]
MRM transition of product and internal standard were monitored at m/z 424.5 to 350.4 and m/z 293 to 247 respectively. […]

Chains of the proteins cited; added tags and fusions are not shown.
UniProt Q9UM07, whole entry: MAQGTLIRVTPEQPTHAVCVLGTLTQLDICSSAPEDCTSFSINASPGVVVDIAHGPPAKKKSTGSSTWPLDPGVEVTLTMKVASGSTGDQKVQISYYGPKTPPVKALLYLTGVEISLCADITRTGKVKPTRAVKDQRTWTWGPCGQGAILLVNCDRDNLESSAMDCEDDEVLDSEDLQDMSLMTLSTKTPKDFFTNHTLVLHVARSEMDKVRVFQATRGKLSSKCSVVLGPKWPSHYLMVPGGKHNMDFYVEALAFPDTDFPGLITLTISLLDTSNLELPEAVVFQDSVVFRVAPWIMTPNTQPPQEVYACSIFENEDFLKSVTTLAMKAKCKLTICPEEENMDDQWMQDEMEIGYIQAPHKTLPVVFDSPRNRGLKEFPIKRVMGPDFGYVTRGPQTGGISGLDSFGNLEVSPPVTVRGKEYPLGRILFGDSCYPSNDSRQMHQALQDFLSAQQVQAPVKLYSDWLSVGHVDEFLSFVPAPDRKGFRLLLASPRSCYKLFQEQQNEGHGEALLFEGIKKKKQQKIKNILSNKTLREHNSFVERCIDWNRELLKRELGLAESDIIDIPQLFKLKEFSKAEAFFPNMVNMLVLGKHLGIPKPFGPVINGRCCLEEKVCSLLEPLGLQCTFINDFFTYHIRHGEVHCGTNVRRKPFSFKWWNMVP

[2] = target: T1, hPAD4 enzyme; assay: RFMS Assay 2 (rapid-fire mass spectrum PAD4 inhibition assay, peptide substrate); details: read-out: human PAD4 (hPAD4) IC50, RFMS Assay 2; 35 nM recombinant human PAD4, substrate TSTGGRQGSHH, room temperature for 30 minutes
Description: Stock compounds were dissolved and stored in 100% DMSO. Compound solutions were prepared via serial dilution at 3-fold intervals in DMSO with top compound concentration at […] in each assay. 0.25 μl of compound solution was transferred from the compound plate to the assay plate by using an acoustic dispenser. Final assay conditions: • Total reaction volume: 25 μl • Assay buffer: […] pH 7.4, 200 mM NaCl, 2 mM CaCl2, 5 mM DTT • 35 nM recombinant human PAD4 • 500 µM TSTGGRQGSHH (SEQ ID NO: 1) • 1.2% DMSO • Stop solution: 10% formic acid
Reaction mixtures were incubated at room temperature for 30 minutes. 10 μl each of the reaction mixtures was then mixed with 40 μl of 10% formic acid in a microtiter plate. The plate was frozen at −80° C. before shipping out on dry ice for RapidFire mass spectroscopy analysis.
Thawed samples were loaded onto the Rapid Fire 300 system (Agilent) wherein they were first sipped for 250 ms and then loaded onto a Agilent “C” (C18) cartridge using a mobile phase of water containing 0.09% formic acid/0.01% trifluoroacetic acid for 3000 ms desalting flowing at a rate of 1.5 ml/min. […]
MRM transitions for substrate and product were monitored in positive ESI mode at m/z=562.3/969.7 and m/z=562.8/541.3 respectively. […]

- IC50 [1]: 11 to 100 nM
- IC50 [2]: 11 to 100 nM
SMILES: Cn1c(-c2cc3cccc(OCCn4cnnc4)c3n2CC2CC2)nc2cc3c(nc21)CCN(C[C@H](N)CF)C3=O
